Laboratory results taken from patent EP4825441A2, “ORAL FORMULATIONS OF BIPHENYLSULFONAMIDE ENDOTHELIN ANGIOTENSIN II RECEPTOR ANTAGONISTS TO TREAT ELEVATED BLOOD PRESSURE AND DIABETIC NEPHROPATHY” (dated 2026).
Marks after values point to notes of the source that are not given here.

Amino acid sequences for entries named in this document (tags omitted). Residues count along the entry.
UniProt P24530, 27-442 limits assumed: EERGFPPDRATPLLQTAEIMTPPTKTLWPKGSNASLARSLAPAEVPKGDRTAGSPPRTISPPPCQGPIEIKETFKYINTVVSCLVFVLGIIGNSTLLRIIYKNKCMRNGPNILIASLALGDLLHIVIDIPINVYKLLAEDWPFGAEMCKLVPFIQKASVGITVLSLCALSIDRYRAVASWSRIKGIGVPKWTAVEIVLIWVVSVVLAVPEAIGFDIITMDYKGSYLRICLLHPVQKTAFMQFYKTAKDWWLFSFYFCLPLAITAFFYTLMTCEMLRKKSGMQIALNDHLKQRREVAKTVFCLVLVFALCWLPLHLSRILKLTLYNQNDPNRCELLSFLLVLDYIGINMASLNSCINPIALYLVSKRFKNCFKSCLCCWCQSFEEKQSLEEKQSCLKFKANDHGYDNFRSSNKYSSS
UniProt P25101, 21-427 limits assumed: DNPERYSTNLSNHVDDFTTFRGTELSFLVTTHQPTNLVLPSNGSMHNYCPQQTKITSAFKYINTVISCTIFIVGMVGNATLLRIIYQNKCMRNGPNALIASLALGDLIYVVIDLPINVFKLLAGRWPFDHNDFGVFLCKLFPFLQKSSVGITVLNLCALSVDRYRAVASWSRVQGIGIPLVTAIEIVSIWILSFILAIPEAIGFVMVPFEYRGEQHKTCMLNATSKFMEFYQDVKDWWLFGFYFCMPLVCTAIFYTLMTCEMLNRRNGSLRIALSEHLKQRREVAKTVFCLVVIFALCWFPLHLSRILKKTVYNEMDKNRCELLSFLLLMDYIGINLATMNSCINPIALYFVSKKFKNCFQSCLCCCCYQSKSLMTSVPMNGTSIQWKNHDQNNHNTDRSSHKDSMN
UniProt P25095, whole entry: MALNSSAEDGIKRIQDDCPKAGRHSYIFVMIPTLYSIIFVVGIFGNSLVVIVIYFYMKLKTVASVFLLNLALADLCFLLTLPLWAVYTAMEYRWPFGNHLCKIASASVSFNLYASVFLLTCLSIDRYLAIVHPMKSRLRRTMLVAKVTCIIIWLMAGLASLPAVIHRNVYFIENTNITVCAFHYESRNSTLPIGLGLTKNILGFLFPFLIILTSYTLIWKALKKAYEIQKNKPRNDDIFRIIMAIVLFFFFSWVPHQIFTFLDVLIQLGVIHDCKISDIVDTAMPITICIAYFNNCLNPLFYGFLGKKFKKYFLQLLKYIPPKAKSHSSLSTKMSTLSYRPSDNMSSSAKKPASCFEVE

Assays:
[1] = molecular target: endothelin B receptor (Homo sapiens, UniProt P24530); test: ETA/B Attached Cell Binding Assay; conditions: competition with [125I]-ET-1, CHO-K1 cells
Description: (§1) CHO-K1 cells expressing either the human endothelin A or endothelin B receptor were cultured in Ham's F12 media (Gibco/BRL, Grand Island, N.Y.) with 10% fetal bovine serum (Hyclone), supplemented with 300 µg/mL Geneticin (G-418 Gibco BRL Products, Grand Island, N.Y.) and maintained at 37°C with 5% CO2 in a humidified incubator. Twenty four hours prior to assay, the cells were treated with 0.25% trypsin-EDTA and were seeded in Falcon, 96 well tissue culture plates at a density of 1.8x10^4 cells/well (the monolayer should reach 80-90% confluency by the day of assay).
(§2) In the attached cell assay, culture media was aspirated from each well and the monolayers were washed with 50 µL of PBS (Mg^++, Ca^++ free). The binding assay was performed in a total volume of 125 µL consisting of assay buffer (50 mM Tris, pH 7.4, including 1% BSA, and 2 µM phosphoramidon), and 25 µL of either 500 nM ET-1 (to define nonspecific binding) or competing drug. The reaction was initiated with the addition of 25 µL of 0.25 nM [^125I]-ET-1 (New England Nuclear). Incubation was carried out with gentle orbital shaking, at 4°C, reaching equilibrium at 4 hours. The reaction was terminated by aspiration of the reaction buffer and two subsequent washes with cold PBS (Mg^++, Ca^++ free). […] Data was analyzed with curve fitting software by Sigma plot.

[2] = molecular target: human endothelin A receptor (Homo sapiens, UniProt P25101); test: ETA/B Attached Cell Binding Assay; conditions: competition with [125I]-ET-1, CHO-K1 cells
Description: as §1, §2

[3] = molecular target: angiotensin II receptor (Rattus norvegicus, UniProt P25095); test: RASMC Binding Assay; conditions: competition with [125]I-Sar-Ile-Angiotensin II, RASMCs
Description: Assays were conducted in a total volume of 250 µL in 96 well microtitre plates. The incubation mixture contained 50 µL [125]I-Sar-Ile-Angiotensin II (0.2 nM), 25 µL of drug dissolved in DMSO, or angiotensin II (1 µM) to define nonspecific binding. Binding to rat aortic smooth muscle cells (RASMCs) was conducted in RPMI media (Gibco BRL Products, Grand Island, N.Y.) containing 0.1% BSA for 2 hours at room temperature with continuous shaking. Unbound radioligand was washed from the wells. The RASMCs with bound radioligand are lysed with 1% Triton X and 0.1% BSA in distilled water for 15 minutes at room temperature with continuous shaking. The solution in each well was transferred to tubes and placed in a gamma counter.

[4] = test system: stage I and II hypertensive patients; test: Phase IIa trial
Description: The Phase IIa trial started with a 3-4 week placebo run-in period. 141 qualified stage I and II hypertensive patients were randomized to take either the compound of formula I 200 mg, 500 mg, or placebo, daily for 4 weeks. Key efficacy endpoints of mean 24 hour systolic ambulatory blood pressure monitoring (ABPM), mean 24 hour diastolic ABPM, mean seated office systolic blood pressure (SBP) and diastolic blood pressure (DBP), mean daytime SBP and DBP, mean nighttime SBP and DBP, and SBP and DBP during final 2 hours of dosing were assessed. 93 patients (efficacy population) were available for ABPM analysis.

[5] = test system: patients with SBP/DBP within 140-179/90-109 mmHg ranges; test: Phase IIb trial
Description: The Phase IIb trial started with a 4-week placebo run-in period and 261 qualified patients with SBP/DBP within 140-179/90-109 mmHg ranges were randomized to either the compound of formula I 200 mg, 400 mg, 800 mg, irbesartan 300 mg, or placebo, taken daily in the morning for 12 weeks. Key efficacy endpoints of seated SBP, DBP and % of patients with BP control (<140/90 mmHg), and all standard safety parameters were assessed. […] The onset of action of the compound of formula I was rapid within 4 hours and the efficacy was sustained over 12 weeks.

[6] = test system: patients with diabetic nephrophathy; test: Planned study in diabetic nephropathy patients (Example 15); conditions: 200 mg, 400 mg or 800 mg daily for 12 weeks; expected result
Description: The study starts with qualified patients with diabetic nephrophathy. Screening assessments and evaluations may be conducted over a period of no more than 2 weeks. Following screening, all eligible patients will undergo a 4-week placebo run-in period to ensure that baseline blood pressure remains stable and continues to meet eligibility criteria for randomization. Eligible patients are randomized to instruct to either the compound of formula I: 200 mg, 400 mg, or 800 mg; irbesartan 300 mg; or placebo, taken daily for 12 weeks. Key efficacy endpoints of seated systolic BP, diastolic BP and % of patients with BP control (<140/90 mmHg), and all standard safety parameters are assessed. Changes from baseline to final measurement in the course of treatment are recorded.

## CCCCC1=NC2(CCCC2)C(=O)N1Cc1ccc(-c2ccccc2S(=O)(=O)Nc2noc(C)c2C)c(COCC)c1
[1]
  activity as endothelin receptor antagonist: has shown activity
[2]
  activity as endothelin receptor antagonist: has shown activity
[3]
  activity as angiotensin II receptor antagonist: has shown activity
[4]; 200 mg (N=39)
  AE Confusion/anxiety/nervousness: 0 n (%)
  AE Eczema: 1 (2.6) n (%)
  AE Headache: 2 (5.1) n (%)
  AE Musculoskeletal: 1 (2.6) n (%)
  AE Nausea/gastritis: 2 (5.1) n (%)
  AE Peripheral Edema: 0 n (%)
  AE Respiratory: 0 n (%)
  AE Tachycardia: 0 n (%)
  ALT Mean change from baseline: -1.5 U/L
  AST Mean change from baseline: -0.9 U/L
  At least one AE: 8 (20.5) n (%)
  Hb Mean Change from baseline: -0.5 g/dL
  Ht Mean change from baseline: -1.7%
  γGT Mean change from baseline: +0.3 U/L
[4]; 200 mg daily, Week 4 (n=35)
  Mean 24 hr ABPM Change DBP: -9.3^a mmHg
  Mean 24 hr ABPM Change SBP: -12.2 ^a mmHg
  Mean Seated Office Change DBP: -10.5^b mmHg
  Mean Seated Office Change SBP: -16.9^b mmHg
[4]; 200 mg or 500 mg once-daily, 4 weeks
  safety and tolerability: safe and well tolerated
[4]; 500 mg (N=38)
  AE Confusion/anxiety/nervousness: 0 n (%)
  AE Eczema: 0 n (%)
  AE Headache: 1 (2.6) n (%)
  AE Musculoskeletal: 2 (5.3) n (%)
  AE Nausea/gastritis: 1 (2.6) n (%)
  AE Peripheral Edema: 1 (2.6) n (%)
  AE Respiratory: 3 (7.9) n (%)
  AE Tachycardia: 0 n (%)
  ALT Mean change from baseline: -0.9 U/L
  AST Mean change from baseline: -1.2 U/L
  At least one AE: 10 (26.3) n (%)
  Hb Mean Change from baseline: -0.7 g/dL
  Ht Mean change from baseline: -2.2%
  γGT Mean change from baseline: +0.8 U/L
[4]; 500 mg daily, Week 4 (n=33)
  Mean 24 hr ABPM Change DBP: -10.1 ^a mmHg
  Mean 24 hr ABPM Change SBP: -14.8 ^a mmHg
  Mean Seated Office Change DBP: -9.8^b mmHg
  Mean Seated Office Change SBP: -17.3^b mmHg
[5]; 200 mg
  ALT Mean change from baseline: -0.4 U/L
  AST Mean change from baseline: -1.2 U/L
[5]; 200 mg (n=58)
  AE Abdominal pain/Gastr: 1 (1.7) n (%)
  AE Diarrhea/Gastr: 1 (1.7) n (%)
  AE Dizziness/Nerv: 0 n (%)
  AE Fatigue/Genrl: 0 n (%)
  AE Headache/Nerv: 0 n (%)
  AE Migraine/Gastr: 0 n (%)
  AE Odema peripheral/Genrl: 2 (3.4) n (%)
  AE Urinary tract infection/Infec: 0 n (%)
[5]; 200 mg daily, Week 12 (n=58)
  % Pts Achieving Goal (< 140/90 mmHg): 36.2%
  Mean DBP Change: -7.2 mmHg
  Mean SBP Change: -13.2 mmHg
[5]; 400 mg
  ALT Mean change from baseline: -3.2 U/L
  AST Mean change from baseline: -1.5 U/L
[5]; 400 mg (n=58)
  AE Abdominal pain/Gastr: 0 n (%)
  AE Diarrhea/Gastr: 1 (1.7) n (%)
  AE Dizziness/Nerv: 2 (3.4) n (%)
  AE Fatigue/Genrl: 4 (6.9) n (%)
  AE Headache/Nerv: 3 (5.2) n (%)
  AE Migraine/Gastr: 2 (3.4) n (%)
  AE Odema peripheral/Genrl: 4 (6.9) n (%)
  AE Urinary tract infection/Infec: 0 n (%)
[5]; 400 mg daily, Week 12 (n=58)
  % Pts Achieving Goal (< 140/90 mmHg): 51.9% ^b
  Mean DBP Change: -9.2 mmHg
  Mean SBP Change: -14.2 mmHg
[5]; 800 mg
  ALT Mean change from baseline: -7.3 U/L
  AST Mean change from baseline: -5.4 U/L
[5]; 800 mg (n=28)
  AE Abdominal pain/Gastr: 2 (7.1) n (%)
  AE Diarrhea/Gastr: 2 (7.1) n (%)
  AE Dizziness/Nerv: 3 (10.7) n (%)
  AE Fatigue/Genrl: 0 n (%)
  AE Headache/Nerv: 2 (7.1) n (%)
  AE Migraine/Gastr: 0 n (%)
  AE Odema peripheral/Genrl: 3 (10.7) n (%)
  AE Urinary tract infection/Infec: 1 (3.6) n (%)
[5]; 800 mg daily, Week 12 (n=28)
  Mean DBP Change: -14.3 ^a mmHg
  Mean SBP Change: -23.4 ^a mmHg
[5]; in vivo
  onset of action: ≤ 4 h
[6]
  BP decrease in SBP and DBP, and BP control: statistically dose-dependent greater BP decrease in SBP and DBP, and in BP control than placebo and irbesartan

## CCCCC1=NC2(CCCC2)C(=O)N1Cc1ccc(-c2ccccc2-c2nnn[nH]2)cc1
[5]; 300 mg
  ALT Mean change from baseline: 0.2 U/L
  AST Mean change from baseline: 0.1 U/L
[5]; 300 mg (n=58)
  AE Abdominal pain/Gastr: 0 n (%)
  AE Diarrhea/Gastr: 1 (1.7) n (%)
  AE Dizziness/Nerv: 2 (3.4) n (%)
  AE Fatigue/Genrl: 3 (5.2) n (%)
  AE Headache/Nerv: 4 (6.9) n (%)
  AE Migraine/Gastr: 2 (3.4) n (%)
  AE Odema peripheral/Genrl: 2 (3.4) n (%)
  AE Urinary tract infection/Infec: 0 n (%)
[5]; 300 mg daily, Week 12 (n=58)
  % Pts Achieving Goal (< 140/90 mmHg): 31.5%
  Mean DBP Change: -7.1 mmHg
  Mean SBP Change: -10.7 mmHg
